# Measured values published in US9820966B2, “Stabilized statin formulations” (Cumberland Pharmaceuticals Inc., priority 2010, dated 2017).
# Where two headings read alike, the source gives them in different places.
# What was measured:
# [1] = Solubility in basic solutions without cyclodextrin (HPLC)
# [2] = 20 mg AS in 1 mL propylene glycol and ethanol (4/1 ratio); pH 11.0; estimated
# [3] = 20 mg AS—Ca in 1 ml
# [4] = 20 mg/ml AS—Ca
compound,measurement,setting,value
"CC(C)c1c(C(=O)Nc2ccccc2)c(-c2ccccc2)c(-c2ccc(F)cc2)n1CC[C@@H](O)C[C@@H](O)CC(=O)O [AS, Atorvastatin free acid]",resulting AS concentration,"[1]; Sample 2: 20 mg AS in 1 mL ultrapure water, pH 11.15 with 0.1M NaOH",0.06 mg/mL
same,resulting AS concentration,"[1]; Sample 3: 20 mg AS in 1 mL, 16.54 mM L-Arg and 0.1M Na3PO4, pH 11.42",0.44 mg/mL
same,AS concentration,[2],about 20 mg/ml
"CC(C)c1c(C(=O)Nc2ccccc2)c(-c2ccccc2)c(-c2ccc(F)cc2)n1CC[C@@H](O)C[C@@H](O)CC(=O)O [AS—Ca, atorvastatin calcium trihydrate]",Atorvastatin Concentration,"[3]; pH 7.5, HPβ-CD 0.87%",0.34 mg/mL
same,Atorvastatin Concentration,"[3]; pH 7.5, HPβ-CD 1.74%",0.43 mg/mL
same,Atorvastatin Concentration,"[3]; pH 7.5, HPβ-CD 3.47%",1.38 mg/mL
same,Atorvastatin Concentration,"[3]; pH 7.5, HPβ-CD 6.94%",5.13 mg/mL
same,Atorvastatin Concentration,"[3]; pH 7.5, HPβ-CD 13.89%",10.01 mg/mL
same,Atorvastatin Concentration,"[3]; pH 7.5, HPβ-CD 27.78%",19.48 mg/mL
same,Atorvastatin Concentration,"[3]; pH 8.5, HPβ-CD 0.87%",0.215 mg/mL
same,Atorvastatin Concentration,"[3]; pH 8.5, HPβ-CD 1.74%",0.52 mg/mL
same,Atorvastatin Concentration,"[3]; pH 8.5, HPβ-CD 3.47%",1.58 mg/mL
same,Atorvastatin Concentration,"[3]; pH 8.5, HPβ-CD 6.94%",5.54 mg/mL
same,Atorvastatin Concentration,"[3]; pH 8.5, HPβ-CD 13.89%",12.42 mg/mL
same,Atorvastatin Concentration,"[3]; pH 8.5, HPβ-CD 27.78%",19.72 mg/mL
same,Atorvastatin,"[4]; 27.78% SBE-β-CD, Na2HPO4, pH 7.07",1.993 mg/mL
same,Atorvastatin,"[4]; 27.78% SBE-β-CD, Na2HPO4, pH 8.75",1.267 mg/mL
same,Atorvastatin,"[4]; 27.78% SBE-β-CD, Na2HPO4, pH 11.75",1.927 mg/mL
same,Atorvastatin,"[4]; 27.78% SBE-β-CD, sodium phosphate (NaH2PO4), pH 2.13",0.228 mg/mL
same,Atorvastatin,"[4]; […], pH 7.09",1.392 mg/mL
same,Atorvastatin,"[4]; […], pH 11.0 (NaOH)",1.927 mg/mL
